Reference: patent US6077822A, “Drug salts” (Dumex-Alpharma A/S, priority 1993, dated 2000)

Legend:
[1] = reaction of the salts with water
[2] = 250 mg in 25 ml ion-exchanged water, 5% NaH2PO4 buffer pH 4.3 and 0.01 M HCl, 37±0.5° C.
[3] = in vivo; cited from earlier work

Q: With “Gentamycin Salt of Sucrose-octa-O-sulfonic Acid [Example 9]” as the substance, how does the “solubility in water of the viscous fluid formed with water” value [1] read?
A: The value was “comparatively low solubility in water”.

Q: What does the source list for “Kanamycin A Salt of Sucrose-octa-O-sulfonic Acid [Example 7]”?
A: solubility [2]: low solubility in water; solubility in water of the viscous fluid formed with water [1]: comparatively low solubility in water

Q: Which “solubility in water of the viscous fluid formed with water” value [1] does the source give for “Kanamycin/aluminium Salt of Sucrose-octa-O-sulphonic Acid [Example 13]” here?
A: Its value is “comparatively low solubility in water”.

Q: For “doxycyclin carrageenate [doxycyclin carregeenate]”, which “effect of increased pH of the stomach on bioavailability / dissociation and absorption” value [3] is on record?
A: The value was “independent of pH”.
